The values that follow come from ChEMBL document CHEMBL4130456, “Discovery of CDZ173 (Leniolisib), Representing a Structurally Novel Class of PI3K Delta-Selective Inhibitors” (ACS Med Chem Lett, 2017).

The chains behind the UniProt entries cited, without tags or fusion partners.
UniProt P42336, whole entry: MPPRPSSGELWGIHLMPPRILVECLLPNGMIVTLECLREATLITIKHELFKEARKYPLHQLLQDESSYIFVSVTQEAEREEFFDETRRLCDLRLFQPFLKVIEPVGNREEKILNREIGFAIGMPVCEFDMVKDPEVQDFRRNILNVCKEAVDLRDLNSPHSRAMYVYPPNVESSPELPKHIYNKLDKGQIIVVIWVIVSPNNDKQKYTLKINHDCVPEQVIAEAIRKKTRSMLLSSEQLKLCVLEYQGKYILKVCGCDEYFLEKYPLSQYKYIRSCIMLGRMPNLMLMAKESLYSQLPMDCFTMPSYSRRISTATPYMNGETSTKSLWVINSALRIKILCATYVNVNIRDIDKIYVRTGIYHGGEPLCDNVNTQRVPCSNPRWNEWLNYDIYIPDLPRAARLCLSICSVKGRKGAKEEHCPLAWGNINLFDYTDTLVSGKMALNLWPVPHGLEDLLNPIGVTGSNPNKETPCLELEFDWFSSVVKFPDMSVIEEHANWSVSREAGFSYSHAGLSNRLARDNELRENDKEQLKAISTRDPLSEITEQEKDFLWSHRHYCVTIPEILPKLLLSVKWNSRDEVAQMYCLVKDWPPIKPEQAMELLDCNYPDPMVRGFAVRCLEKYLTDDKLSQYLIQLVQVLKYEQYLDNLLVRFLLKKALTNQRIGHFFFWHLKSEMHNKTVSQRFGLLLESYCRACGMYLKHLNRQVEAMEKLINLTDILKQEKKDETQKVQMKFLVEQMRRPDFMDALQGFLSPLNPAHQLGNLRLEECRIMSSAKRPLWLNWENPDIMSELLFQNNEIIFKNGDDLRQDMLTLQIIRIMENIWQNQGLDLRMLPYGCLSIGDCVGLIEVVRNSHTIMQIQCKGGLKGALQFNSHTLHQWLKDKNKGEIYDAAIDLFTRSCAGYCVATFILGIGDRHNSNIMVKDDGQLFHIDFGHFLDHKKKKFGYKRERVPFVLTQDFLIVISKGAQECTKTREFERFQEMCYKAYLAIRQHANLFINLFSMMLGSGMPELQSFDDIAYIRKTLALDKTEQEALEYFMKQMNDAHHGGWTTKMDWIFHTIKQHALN

In experiment [1] the target is T1, Phosphatidylinositol 4,5-bisphosphate 3-kinase catalytic subunit delta isoform (Homo sapiens, UniProt O00329).
T1 sequence (O00329 whole entry): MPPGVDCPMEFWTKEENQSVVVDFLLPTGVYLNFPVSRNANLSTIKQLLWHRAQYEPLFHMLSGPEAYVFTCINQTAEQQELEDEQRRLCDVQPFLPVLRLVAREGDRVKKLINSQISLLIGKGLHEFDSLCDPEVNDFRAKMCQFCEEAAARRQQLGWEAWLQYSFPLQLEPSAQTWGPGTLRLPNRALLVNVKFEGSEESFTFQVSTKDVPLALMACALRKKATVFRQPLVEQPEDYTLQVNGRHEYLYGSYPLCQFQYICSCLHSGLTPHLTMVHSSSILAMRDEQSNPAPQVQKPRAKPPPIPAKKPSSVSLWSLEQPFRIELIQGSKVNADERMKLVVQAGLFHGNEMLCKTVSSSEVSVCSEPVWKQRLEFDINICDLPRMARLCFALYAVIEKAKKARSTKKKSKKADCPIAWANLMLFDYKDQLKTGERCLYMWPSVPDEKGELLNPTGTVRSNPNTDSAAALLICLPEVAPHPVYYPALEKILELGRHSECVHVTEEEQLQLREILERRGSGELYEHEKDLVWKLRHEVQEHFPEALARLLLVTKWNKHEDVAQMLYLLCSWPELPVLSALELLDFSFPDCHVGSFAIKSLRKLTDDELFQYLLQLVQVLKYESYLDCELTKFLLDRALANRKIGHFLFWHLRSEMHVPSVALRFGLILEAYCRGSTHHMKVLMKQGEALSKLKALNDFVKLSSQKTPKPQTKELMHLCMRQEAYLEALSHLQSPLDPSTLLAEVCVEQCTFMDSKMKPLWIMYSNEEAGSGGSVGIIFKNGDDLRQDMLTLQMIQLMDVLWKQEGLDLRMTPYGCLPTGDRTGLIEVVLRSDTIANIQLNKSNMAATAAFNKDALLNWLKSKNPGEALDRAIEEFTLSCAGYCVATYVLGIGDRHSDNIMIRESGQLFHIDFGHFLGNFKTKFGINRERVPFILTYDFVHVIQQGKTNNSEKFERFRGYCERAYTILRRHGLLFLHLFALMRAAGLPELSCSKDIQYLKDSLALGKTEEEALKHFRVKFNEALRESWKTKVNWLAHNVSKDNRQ
As to the kind of experiment: Inhibition of PI3Kdelta (unknown origin) using phosphatidyl inositol as substrate measured after 60 mins by Alexa Fluor647-labelled ADP tracer based TR-FRET assay.

The target of experiment [2] is T1, Phosphatidylinositol 4,5-bisphosphate 3-kinase catalytic subunit delta isoform. As to the kind of experiment: Inhibition of recombinant human myristoylated PI3Kdelta catalytic domain expressed in Rat1 cells assessed as reduction in Akt phosphorylation at […] residue after 1 hr by alpha screen Surefire assay. The class given is cell-based.
Experiment [3] shares this target. Put plainly: Inhibition of PI3Kdelta in anti-CD3/CD28 stimulated human PBMC derived CD4-positive T cells assessed as reduction in T cell differentiation to Th2 cells by measuring IL-13 level after 72 hrs by ELISA.
Experiment [4] shares this target. Put plainly: Inhibition of PI3Kdelta in anti-CD3/CD28 stimulated human PBMC derived CD4-positive T cells assessed as reduction in T cell differentiation to Th17 cells by measuring IL-17A level after 72 hrs by ELISA.
The species named for the next experiment is Homo sapiens. Put plainly: Selectivity ratio of IC50 for recombinant human myristoylated PI3Kalpha catalytic domain expressed in Rat1 cells to IC50 for recombinant human myristoylated PI3Kdelta catalytic domain expressed in Rat1 cells. The class given is cell-based.
For experiment [5], the target named is T2, Phosphatidylinositol 4,5-bisphosphate 3-kinase catalytic subunit alpha isoform (Homo sapiens, UniProt P42336). As to the kind of experiment: Inhibition of recombinant PI3Kalpha (unknown origin) using phosphatidyl inositol/n-Octyl-glucoside as substrate measured after 30 mins by KinaseGlo assay.
The target of experiment [6] is T2, Phosphatidylinositol 4,5-bisphosphate 3-kinase catalytic subunit alpha isoform. As to the kind of experiment: Inhibition of recombinant human myristoylated PI3Kalpha catalytic domain expressed in Rat1 cells assessed as reduction in Akt phosphorylation at […] residue after 1 hr by alpha screen Surefire assay. The class given is cell-based.

`CCC(=O)N1CC[C@H](Nc2ncnc3c2CN(c2cnc(OC)c(C(F)(F)F)c2)CC3)C1` [LENIOLISIB]: the IC50 was 11 nM in experiment [1], 56 nM in experiment [2], 95 nM in experiment [3] and 73 nM in experiment [4]. The Ratio IC50 in the experiment filed under Homo sapiens amounted to 30.

For `COc1ncc(N2CCc3ncnc(N[C@H]4CCN(C(=O)C5CCOCC5)C4)c3C2)cc1C`, the IC50 in experiment [5] stood at 373 nM; in experiment [6], 6190 nM.
